Patent US20130165427A1, “COMPOUNDS AND COMPOSITIONS FOR TREATING CHEMICAL WARFARE AGENT-INDUCED INJURIES” (published 2013)

Sequences of proteins named here, by UniProt entry; tags and fusion partners are left off.
UniProt O75762, whole entry, looked up: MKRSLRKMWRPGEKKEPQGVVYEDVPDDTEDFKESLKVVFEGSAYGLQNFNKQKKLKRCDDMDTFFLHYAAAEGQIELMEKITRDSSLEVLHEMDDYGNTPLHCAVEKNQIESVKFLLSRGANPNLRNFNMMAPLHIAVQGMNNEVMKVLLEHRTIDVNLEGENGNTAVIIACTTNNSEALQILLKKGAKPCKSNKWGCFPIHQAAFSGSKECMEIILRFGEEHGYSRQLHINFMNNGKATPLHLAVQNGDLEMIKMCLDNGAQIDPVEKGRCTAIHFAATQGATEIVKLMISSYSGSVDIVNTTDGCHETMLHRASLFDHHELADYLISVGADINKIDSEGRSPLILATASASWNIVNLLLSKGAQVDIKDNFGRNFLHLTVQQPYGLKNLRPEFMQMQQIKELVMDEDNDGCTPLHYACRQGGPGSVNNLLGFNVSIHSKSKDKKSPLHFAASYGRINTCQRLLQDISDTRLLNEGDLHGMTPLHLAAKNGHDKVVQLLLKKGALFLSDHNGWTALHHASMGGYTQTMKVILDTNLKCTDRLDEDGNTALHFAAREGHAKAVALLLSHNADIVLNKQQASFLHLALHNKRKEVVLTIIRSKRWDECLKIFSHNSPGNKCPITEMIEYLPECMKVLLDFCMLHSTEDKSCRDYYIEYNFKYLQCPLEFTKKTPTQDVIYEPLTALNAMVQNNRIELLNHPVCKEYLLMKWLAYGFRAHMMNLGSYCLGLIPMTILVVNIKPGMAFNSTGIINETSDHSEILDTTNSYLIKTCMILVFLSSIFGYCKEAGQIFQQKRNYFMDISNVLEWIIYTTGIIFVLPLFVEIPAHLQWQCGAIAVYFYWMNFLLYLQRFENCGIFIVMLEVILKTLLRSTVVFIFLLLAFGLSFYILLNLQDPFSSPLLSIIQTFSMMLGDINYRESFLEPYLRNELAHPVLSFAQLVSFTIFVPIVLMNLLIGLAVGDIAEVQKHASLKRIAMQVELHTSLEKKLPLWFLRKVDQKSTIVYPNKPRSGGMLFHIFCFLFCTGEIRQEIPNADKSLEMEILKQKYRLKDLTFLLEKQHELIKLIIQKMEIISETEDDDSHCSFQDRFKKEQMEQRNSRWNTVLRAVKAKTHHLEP

target: TRPA1 channel (Homo sapiens, UniProt O75762); experiment: Whole-cell patch clamp experiments, block of TRPA1 current; conditions: read-out: activity as measured in the patch clamp assay (IC50), HEK293/TREx TRPA1 cells, block of current in continued presence of AITC

SMILES	IC50
Cn1c(=O)c2c(ncn2CC(=O)Nc2nc(-c3ccccc3)c(-c3ccccc3)s2)n(C)c1=O	< 1000 nM
Cn1c(=O)c2c(ncn2CC(=O)Nc2nnc(-c3ccc(Cl)cc3)s2)n(C)c1=O	< 1000 nM
Cn1c(=O)c2c(ncn2CC(=O)Nc2nc(-c3ccc4ccccc4c3)cs2)n(C)c1=O	< 1000 nM
Cc1ccc(-c2csc(NC(=O)Cn3cnc4c3c(=O)n(C)c(=O)n4C)n2)cc1	< 1000 nM
Cn1c(=O)c2c(ncn2CC(=O)Nc2nc(-c3ccc(Cl)cc3)cs2)n(C)c1=O	< 1000 nM
Cn1c(=O)c2c(ncn2CC(=O)Nc2nc(-c3ccc(Cl)c(Cl)c3)cs2)n(C)c1=O	< 1000 nM
Cc1ccc(-c2nc(NC(=O)Cn3cnc4c3c(=O)n(C)c(=O)n4C)sc2C)cc1	< 1000 nM
CCOc1ccc(-c2csc(NC(=O)Cn3cnc4c3c(=O)n(C)c(=O)n4C)n2)cc1	< 1000 nM
Cn1c(=O)c2c(ncn2CC(=O)Nc2nc(-c3ccccn3)cs2)n(C)c1=O	1000 to 10000 nM
Cn1c(=O)c2c(ncn2CC(=O)Nc2nc(-c3ccc(C(C)(C)C)cc3)cs2)n(C)c1=O	< 1000 nM
CC(C)c1ccc(-c2csc(NC(=O)Cn3cnc4c3c(=O)n(C)c(=O)n4C)n2)cc1	< 1000 nM
Cn1c(=O)c2c(ncn2CC(=O)Nc2nc(-c3ccc(C4CCCCC4)cc3)cs2)n(C)c1=O	< 1000 nM
Cc1ccc(-c2csc(NC(=O)Cn3cnc4c3c(=O)n(C)c(=O)n4C)n2)o1	1000 to 10000 nM
Cn1c(=O)c2c(ncn2CC(=O)Nc2nc(-c3ccc(F)cc3F)cs2)n(C)c1=O	< 1000 nM
Cn1c(=O)c2c(ncn2CC(=O)Nc2nc(-c3ccc(F)c(F)c3)cs2)n(C)c1=O	< 1000 nM
